The record followed here is PubChem BioAssay AID2057 (The Scripps Research Institute Molecular Screening Center, 2009).

Amino acid sequences for entries named in this document (tags omitted).
UniProt Q07820, whole entry: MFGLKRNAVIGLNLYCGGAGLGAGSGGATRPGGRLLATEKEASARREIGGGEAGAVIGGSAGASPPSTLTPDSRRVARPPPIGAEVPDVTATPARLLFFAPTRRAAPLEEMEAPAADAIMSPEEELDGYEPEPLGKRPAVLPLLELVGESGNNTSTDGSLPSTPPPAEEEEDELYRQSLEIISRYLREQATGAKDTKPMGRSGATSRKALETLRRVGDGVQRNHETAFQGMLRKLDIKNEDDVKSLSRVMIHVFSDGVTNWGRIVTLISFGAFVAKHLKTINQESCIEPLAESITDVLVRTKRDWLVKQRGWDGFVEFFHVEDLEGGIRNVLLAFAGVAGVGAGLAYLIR

The entries are a selection whose mix differs from that of the whole data set. Some salts or complexes appear as unconnected parts, following the source record. The source made the active and inactive calls.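 The calls were made as follows: active = inhibition above the mean inhibition of all tested compounds plus 3 SD, set per campaign (cut at about 40% in these data); inactive = the rest.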

The target of this experiment is Induced myeloid leukemia cell differentiation protein Mcl-1 (Homo sapiens) (UniProt Q07820). Kind of experiment: MCL1-BIM peptide interaction disruptors – biochemical, fluorescence polarization, primary screen (AID 2057).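 Also: 0% = DMSO wells and 100% = unlabeled Bim-BH3 peptide control; higher means more loss of mP so more displacement of Bim peptide.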 The conditions noted are these: GST-MCL1 / FITC-Bim-BH3 fluorescence polarization; at 10.9 µM; stronger effect = higher value.
Turning to `CC1=NCCc2c1[nH]c1ccccc21.O=[N+]([O-])c1cc([N+](=O)[O-])c(O)c([N+](=O)[O-])c1`, the inhibition (usually the drop in the measured response relative to a control, in per cent) was inactive: 5.12%.

`O=C(O)c1cccc(Nc2c([N+](=O)[O-])cc([N+](=O)[O-])cc2[N+](=O)[O-])c1`: the inhibition was inactive: 3.52%.

For the molecule `CP(=O)(Nc1cccc(Br)c1)Oc1ccccc1` (stereo not drawn), the inhibition is inactive: 3.86%.

For `Cc1cc(C)cc(OP(C)(=O)Nc2ccccn2)c1` (stereo not drawn), the inhibition is inactive: 1.2%.

For the molecule `Cc1ccc(C)c(NP(C)(=O)Oc2ccccc2)c1` (stereo not drawn), the inhibition was inactive: 3.81%.

As to `COc1ccccc1OP(C)(=O)Nc1cccc(Br)c1` (stereo not drawn), the inhibition is inactive: -0.96%.

For the molecule `Cc1cc(C)cc(OP(C)(=O)Nc2ccc(C)cc2C)c1` (stereo not drawn), the inhibition was inactive: 2.32%.

On to `CCOC(=O)c1ccc(NP(C)(=O)Oc2cc(C)cc(C)c2)cc1` (stereo not drawn), for which the inhibition was inactive: 3.32%.

As to `O=[N+]([O-])c1cc([N+](=O)[O-])c(-c2cnn(-c3ccccc3)c2)c([N+](=O)[O-])c1`, the inhibition was inactive: -3.75%.

For `Cc1nc2ccc3ccccc3c2s1.O=[N+]([O-])c1cc([N+](=O)[O-])c(O)c([N+](=O)[O-])c1`, the inhibition is inactive: 4.2%.

With `O=[N+]([O-])c1cc([N+](=O)[O-])c(-n2nnc3ccccc32)c([N+](=O)[O-])c1`, the inhibition was inactive: 1.68%.

With `CN1CCCCC1COC(=O)C1(O)c2ccccc2CCc2ccccc21` (stereo not drawn), the inhibition was inactive: 9.4%.

Take `COc1ccccc1OP(C)(=O)Nc1c(C)cccc1C` (stereo not drawn): the inhibition is inactive: 4.82%.

For `CP(=O)(Nc1ccc(SC(F)(F)F)cc1)Oc1ccccc1` (stereo not drawn), the inhibition is inactive: 0.2%.

For `CCCOc1ccc(NP(C)(=O)Oc2ccc(Cl)cc2)cc1` (stereo not drawn), the inhibition was inactive: -1%.

As for `O=[N+]([O-])c1cc([N+](=O)[O-])c(Nc2nnnn2CCO)c([N+](=O)[O-])c1`, the inhibition was inactive: -2.07%.

For the molecule `CC1=C2N=C(C=C3N=C(C(C)=C4[N-][C@@](C)([C@@H]5N=C1[C@](C)(CCC(=O)NC[C@@H](C)OP(=O)([O-])O[C@H]1[C@@H](O)[C@@H](n6cnc7cc(C)c(C)cc76)O[C@@H]1CO)[C@H]5CC(N)=O)[C@@](C)(CC(N)=O)[C@@H]4CCC(N)=O)[C@@](C)(CC(N)=O)[C@@H]3CCC(N)=O)C(C)(C)[C@@H]2CCC(N)=O.[C-]#N.[Co+3]`, the inhibition is inactive: 10.5%.

As to `CCOC(=O)C(CC)C1=NC(C)(C)Cc2ccccc21.O=[N+]([O-])c1cc([N+](=O)[O-])c(O)c([N+](=O)[O-])c1` (stereo not drawn), the inhibition is inactive: 7.24%.

For `CP(=S)(Nn1cnnc1)Oc1ccccc1` (stereo not drawn), the inhibition is inactive: -0.68%.

Consider `COc1ccccc1OP(C)(=O)Nc1ccccc1` (stereo not drawn), for which the inhibition was inactive: 5.15%.

As to `CP(=O)(Nc1ccccc1Br)Oc1ccccc1` (stereo not drawn), the inhibition was inactive: 1.49%.

For `CCOP(C)(=S)SCC(=O)NC(C)C(=O)O` (stereo not drawn), the inhibition was inactive: 9.16%.

Regarding `O=[N+]([O-])c1cc([N+](=O)[O-])c(O)c([N+](=O)[O-])c1.c1ccc(Oc2ccncc2)cc1`, the inhibition is inactive: -3.95%.

As for `CCOC(=O)c1ccc(NP(C)(=O)Oc2ccc(OC)cc2)cc1` (stereo not drawn), the inhibition was inactive: 3.94%.

Consider `CP(=O)(Nc1ccccn1)Oc1ccc(Cl)cc1` (stereo not drawn), for which the inhibition is inactive: -1.25%.

In the case of `CP(=O)(Nc1ccc(SC(F)(F)F)cc1)Oc1ccc(Cl)cc1` (stereo not drawn), the inhibition is inactive: -1.56%.

As to `Cc1cccc(C)c1OP(C)(=O)Nc1ccc(SC(F)(F)F)cc1` (stereo not drawn), the inhibition is inactive: 6.7%.

For the molecule `CP(=O)(Oc1ccccc1)OC(c1ccccc1)C(F)(F)F` (stereo not drawn), the inhibition was inactive: 2.86%.

Take `CCc1ccc(OP(C)(=O)N2CCN(c3ccc([N+](=O)[O-])cc3)CC2)cc1` (stereo not drawn): the inhibition is inactive: -5.03%.

In the case of `CP(=O)(NC(=O)Nc1ccccc1)Oc1ccccc1` (stereo not drawn), the inhibition is inactive: 12.2%.

Take `Cc1cc(C)cc(OP(C)(=O)Nc2ccc(SC(F)(F)F)cc2)c1` (stereo not drawn): the inhibition is inactive: -5.99%.

As to `CCN(CC)CCCOC(=O)C(O)(c1ccccc1)c1ccccc1`, the inhibition was inactive: -6.49%.

On to `CCOC(=O)c1ccc(NP(C)(=O)Oc2ccccc2)cc1` (stereo not drawn), for which the inhibition is inactive: 0.97%.

`COc1ccccc1OP(C)(=O)Nc1ccc(C)cc1` (stereo not drawn): the inhibition is inactive: -2.73%.

For the molecule `Cc1ccc(NP(C)(=O)Oc2ccccc2)c(C)c1` (stereo not drawn), the inhibition is inactive: 1.95%.

For the molecule `COc1ccccc1OP(C)(=O)Nc1cc(Cl)ccc1C` (stereo not drawn), the inhibition was inactive: 3.15%.

For `COc1ccc(OP(C)(=O)Nc2cccc(F)c2)cc1` (stereo not drawn), the inhibition was inactive: 5.89%.

With `Cc1cc(C)cc(OP(C)(N)=O)c1` (stereo not drawn), the inhibition is inactive: -0.72%.

Take `O=[N+]([O-])c1cc([N+](=O)[O-])c(Nc2cccnc2)c([N+](=O)[O-])c1`: the inhibition is inactive: 20.4%.

On to `CC(C)(C)c1ccc(OP(C)(=O)Nc2ccc(SC(F)(F)F)cc2)cc1` (stereo not drawn), for which the inhibition was inactive: -5.92%.

Take `Cc1cccc(C)c1OP(C)(N)=O` (stereo not drawn): the inhibition is inactive: -1.99%.

Regarding `O=[N+]([O-])c1ccc2c(c1)C=Nc1ccccc1O2`, the inhibition is inactive: 4.68%.

Consider `Cc1nc2ccc3ccccc3c2o1.O=[N+]([O-])c1cc([N+](=O)[O-])c(O)c([N+](=O)[O-])c1`, for which the inhibition was inactive: 0.11%.

On to `CP(=O)(OCCOc1ccccc1)OCCOc1ccccc1`, for which the inhibition was inactive: 0.41%.

Take `CP(=O)(Nc1ccc(Cl)cc1Cl)Oc1ccccc1` (stereo not drawn): the inhibition is inactive: 2.85%.

With `Cc1cc(C)cc(OP(C)(=O)Nc2cccc(C(F)(F)F)c2)c1` (stereo not drawn), the inhibition was inactive: -0.96%.

As to `COc1ccc(OP(C)(=O)Nc2ccccc2Br)cc1` (stereo not drawn), the inhibition was inactive: 5.39%.

Consider `COc1ccccc1OP(C)(=O)Nc1ccc(C)c(C)c1` (stereo not drawn), for which the inhibition was inactive: 3.55%.

For the molecule `O=[N+]([O-])c1cc([N+](=O)[O-])c(Nc2ccccn2)c([N+](=O)[O-])c1`, the inhibition is inactive: -2.77%.

`Cc1c(NP(C)(=O)Oc2ccc(C(C)C)cc2)c(=O)n(-c2ccccc2)n1C` (stereo not drawn): the inhibition was inactive: 8.18%.

As to `CCc1ccc(OP(C)(=O)O)cc1`, the inhibition was inactive: 0.08%.

As to `CP(=O)(Nc1ccccn1)Oc1ccccc1` (stereo not drawn), the inhibition is inactive: 6.52%.

As to `COc1ccccc1OP(C)(=O)Nc1ccc(C)cc1C` (stereo not drawn), the inhibition was inactive: 6.31%.

Turning to `COc1ccccc1OP(C)(=O)Nc1ccc(Br)cc1` (stereo not drawn), the inhibition is inactive: -4.29%.

Regarding `CN(C)CCOC(=O)C(O)(c1ccccc1)C1CCCC1` (stereo not drawn), the inhibition was inactive: 5.38%.

On to `COc1ccc(OP(C)(=O)Nc2ccccn2)cc1` (stereo not drawn), for which the inhibition was inactive: 6.32%.

On to `CP(=O)(Nc1ccc(Cl)cc1)Oc1ccc(F)cc1` (stereo not drawn), for which the inhibition is inactive: -5.81%.

Regarding `CC(C)(C)c1ccc(OP(C)(=O)O)cc1`, the inhibition is inactive: 3%.

On to `COc1ccccc1OP(C)(=O)Nc1ccccc1Br` (stereo not drawn), for which the inhibition is inactive: 1.25%.

As for `CN(C)C(=O)c1c([N+](=O)[O-])cc([N+](=O)[O-])cc1[N+](=O)[O-]`, the inhibition is inactive: 4.81%.

On to `CCN(CC)CC(O)COC(=O)C(O)(c1ccccc1)C1CCCCC1` (stereo not drawn), for which the inhibition is inactive: -2.05%.

With `COc1ccc(OP(C)(=O)Nc2ccc(Br)cc2)cc1` (stereo not drawn), the inhibition is inactive: 7.59%.

Regarding `CP(=O)(Oc1ccccc1)N1CCOC1=O` (stereo not drawn), the inhibition is inactive: -1.42%.

On to `CCc1ccc(OP(C)(=O)Nc2cccnc2)cc1` (stereo not drawn), for which the inhibition was inactive: 1.85%.

On to `COc1ccccc1OP(C)(=O)Nc1c(C)n(C)n(-c2ccccc2)c1=O` (stereo not drawn), for which the inhibition is inactive: 6.62%.

In the case of `O=C(OCCCN1CCCC1)C(O)(c1ccccc1)C1CCCCC1` (stereo not drawn), the inhibition was inactive: -0.94%.

`Nc1ccc2c(ccc3cccnc32)n1.O=[N+]([O-])c1cc([N+](=O)[O-])c(O)c([N+](=O)[O-])c1`: the inhibition was inactive: 8.63%.

For `CP(=O)(OC12CC3CC(CC(C3)C1)C2)OC12CC3CC(CC(C3)C1)C2`, the inhibition was inactive: 1.41%.

On to `CCOC(=O)c1ccc(NP(C)(=O)Oc2ccc(Cl)cc2)cc1` (stereo not drawn), for which the inhibition was inactive: 1.51%.

`O=[N+]([O-])c1cc([N+](=O)[O-])c(NCC2CCS(=O)(=O)C2)c([N+](=O)[O-])c1` (stereo not drawn): the inhibition was inactive: 0.32%.

Consider `COc1ccc(OP(C)(=O)Nc2cccc(Br)c2)cc1` (stereo not drawn), for which the inhibition is inactive: 3.33%.

In the case of `COc1ccc(NP(C)(=O)Oc2ccccc2OC)cc1` (stereo not drawn), the inhibition is inactive: 2.49%.

Regarding `CN(C)CCOC(=O)C(O)(c1ccccc1)C1CCCCC1` (stereo not drawn), the inhibition was inactive: 6.81%.

As for `CP(=O)(Nc1ccc2c(c1)OCCO2)Oc1ccccc1` (stereo not drawn), the inhibition was inactive: 6.66%.

As to `Cc1ccccc1NP(C)(=O)Nc1ccccc1C`, the inhibition is inactive: -0.85%.

On to `CP(=O)(Nc1ccc(SC(F)(F)F)cc1)Oc1ccc(F)cc1` (stereo not drawn), for which the inhibition was inactive: 2.07%.

In the case of `CCOP(C)(=S)SCC(=O)NC(C)(CC)C(=O)O` (stereo not drawn), the inhibition is inactive: 5.42%.

As to `O=C(OCCN1CCN(CCOCc2ccccc2)CC1)C(O)(c1ccccc1)c1ccccc1`, the inhibition was inactive: 2.02%.

For `O=C(OC1CN2CCC1CC2)c1ccc([N+](=O)[O-])cc1` (stereo not drawn), the inhibition was inactive: 3.33%.

On to `COc1ccc2c(c1O)-c1c(O)c(OC)cc3c1[C@H](C2)[N+](C)(C)CC3.O=[N+]([O-])c1cc([N+](=O)[O-])c([O-])c([N+](=O)[O-])c1[O-]`, for which the inhibition was inactive: 17.7%.

For the molecule `CC(C)c1ccc(OP(C)(=O)Nc2ccc(SC(F)(F)F)cc2)cc1` (stereo not drawn), the inhibition was inactive: 10.8%.

Regarding `CP(=O)(Nc1ccccc1F)Oc1ccccc1` (stereo not drawn), the inhibition was inactive: -0.56%.

As to `CCN(CC)CCCOC(=O)C(O)(c1ccccc1)C1CCCCC1` (stereo not drawn), the inhibition was inactive: -0.66%.

For the molecule `O=[N+]([O-])c1cc([N+](=O)[O-])c(OC2CCCCC2O)c([N+](=O)[O-])c1` (stereo not drawn), the inhibition was inactive: 3.05%.

With `CCCCCOc1ccc(NP(C)(=O)Oc2ccc(Cl)cc2Cl)cc1` (stereo not drawn), the inhibition is inactive: 3.03%.

As to `CP(=O)(Nc1ccccc1)Oc1ccc(F)cc1` (stereo not drawn), the inhibition is inactive: 0.31%.

`COc1ccc(OP(C)(=O)Nc2ccc(SC(F)(F)F)cc2)cc1` (stereo not drawn): the inhibition was inactive: 3.9%.

Consider `CCOC(=O)c1ccc(NP(C)(=O)Oc2ccc(F)cc2)cc1` (stereo not drawn), for which the inhibition was inactive: 4.45%.
